Measurements from patent US6153614A, “Piperazinyl pyrimidine dione compounds selective for adrenoceptors” (Abbott Laboratories, priority 1998, dated 2000).

Target: T1, α1A adrenoceptor (rat submaxillary gland) (Rattus norvegicus, UniProt P43140)
T1 construct: from tissue; host or cells: rat submaxillary gland membranes
T1 sequence (P43140 1-466): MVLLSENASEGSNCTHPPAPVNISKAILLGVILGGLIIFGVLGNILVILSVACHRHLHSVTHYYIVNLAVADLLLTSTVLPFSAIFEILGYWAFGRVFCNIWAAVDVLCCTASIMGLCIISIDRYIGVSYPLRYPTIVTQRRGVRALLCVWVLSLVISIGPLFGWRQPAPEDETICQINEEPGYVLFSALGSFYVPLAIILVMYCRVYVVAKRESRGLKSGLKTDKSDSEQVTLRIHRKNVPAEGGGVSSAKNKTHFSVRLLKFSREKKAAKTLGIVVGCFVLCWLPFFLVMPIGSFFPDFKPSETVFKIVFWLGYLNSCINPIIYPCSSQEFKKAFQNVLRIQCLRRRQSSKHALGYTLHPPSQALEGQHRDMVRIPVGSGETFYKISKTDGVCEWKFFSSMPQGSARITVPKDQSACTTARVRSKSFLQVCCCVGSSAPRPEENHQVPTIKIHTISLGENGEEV
Experiment: Radioligand binding α1A (rat submaxillary gland), [3H]-prazosin
Conditions: [3H]prazosin 0.2 nM
Protocol: Representative compounds of the invention were evaluated for α-adrenoceptor binding affinity in vitro using [^3 H]-prazosin as the radioligand and two cloned α1 adrenoceptors expressed in LTK cells: α1b (hamster), and α1d (rat). Additionally, binding affinity against the pharmacologically defined α1A adrenoceptor (rat submaxillary gland) was measured.
On the fifth day of culture, growth medium was removed from cells grown in the roller bottles, and the cells were washed twice with PBS (Sigma, 120 mM NaCl, 2.7 mM KCl, 10 mM Na2 HPO4 --NaH2 PO4, pH=7.4). Cells were detached from the roller bottles by incubating for 15 minutes at 37° C. in a Tris-EDTA solution (10 mM Tris, 100 mM NaCl, 1 mM EDTA, pH=7.4). […]
Briefly, plastic Bioblocks™ (DBM Scientific, Valencia, Calif.) were incubated at 25° C. for 50 minutes with […] of membrane homogenate (diluted with an additional 96 volumes (for cloned adrenoceptors, 12 volumes for submaxillary gland)) in 50 mM Tris-HCl buffer (pH=7.7 at the time of assay), […] of [^3 H]prazosin (0.2 nM final concentration, 75-85 Ci/mmole, DuPont-NEN Corp., Boston, Mass.), and […] of either water (for total binding) or […] phentolamine (final concentration, for non-specific binding). […] Radioactivity was determined by standard liquid scintillation techniques.

## COc1cc2nc(N3CCN(C(=O)C4CCCO4)CC3)nc(N)c2cc1OC (stereo not shown) [terazosin]
  Ki: 0.823 nM
